# Experimental data: patent US9498438B2, “Compositions of efavirenz” (The University of Liverpool, priority 2011, dated 2016)
# Experiment: ATP cell viability assay (CellTiter-Glo) cytotoxicity
# Format: cell-based
# Settings: human, Caco-2 (intestinal) cells; 70% efavirenz loaded; 24 hours incubation
# Description: HepG2 (hepatic) and Caco-2 (intestinal) cells were purchased from American Type Tissue Culture (ATCC; USA) and maintained in Dulbecco's modified eagle's medium (DMEM; Sigma; Dorest, Uk) supplemented with 10% fetal bovine serum (FBS; Bio-Whittaker, Berkshire, Uk) for HepG2 and 15% FBS for Caco-2. CEM (lymphocyte) and THP-1 (monocyte) cells were purchased from European Collection of Cell Culture (ECACC; Porton Down, Uk) and grown in RPMI-1640 (Sigma; Dorest, Uk) supplemented with 10% FBS. All cell lines were incubated at 37° C. and 5% CO2 and for adherent cells (HepG2 and Caco-2) were routinely sub-cultured every 4 days when 95% confluent. Suspension cells (CEM and THP-1) were routinely sub-cultured when a density of 1×10^6 cells/ml was achieved. Cell count and viability was determined by Trypan Blue exclusion assay.
# HepG2, Caco-2, THP-1, CEM and A-THP-1 cells were separately seeded at a density of 2.5×10^4/100 μl in their appropriate media into each well of a 96 well plate (Nunclon™, Denmark) and incubated for 24 hours at 37° C. and 5% CO2. Media was then aspirated and replaced with media containing 0.1, 1, 10, 100, 500 or 1000 μM, calculated from molarity of efavirenz (145 samples), of each efavirenz dispersion and incubated for a further 24 hours. The same procedure was followed for each individual excipient (23 samples) with concentrations range of 1 μM to 1 M. […]
structure (smiles),measurement,value
"O=C1Nc2ccc(Cl)cc2[C@@](C#CC2CC2)(C(F)(F)F)O1 [Aqueous solution, efavirenz]",IC50 at 24 h,39 µM
